The source of these data is ChEMBL document CHEMBL4020829, “Structure-Activity Relationships and Computational Investigations into the Development of Potent and Balanced Dual-Acting Butyrylcholinesterase Inhibitors and Human Cannabinoid Receptor 2 Ligands with Pro-Cognitive in Vivo Profiles” (J Med Chem, 2018).

Amino acid sequences for entries named in this document (tags omitted).
UniProt P35372, whole entry: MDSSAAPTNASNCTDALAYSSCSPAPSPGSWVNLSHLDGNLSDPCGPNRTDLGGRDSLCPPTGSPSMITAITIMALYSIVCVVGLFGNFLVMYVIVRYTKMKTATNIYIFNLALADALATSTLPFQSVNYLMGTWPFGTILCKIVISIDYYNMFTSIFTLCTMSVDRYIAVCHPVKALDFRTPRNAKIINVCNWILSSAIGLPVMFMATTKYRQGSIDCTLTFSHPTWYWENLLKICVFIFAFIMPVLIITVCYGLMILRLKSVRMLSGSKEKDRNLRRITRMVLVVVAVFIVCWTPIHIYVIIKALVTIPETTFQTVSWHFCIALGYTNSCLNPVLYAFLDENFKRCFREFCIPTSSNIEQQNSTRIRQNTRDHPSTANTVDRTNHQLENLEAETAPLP

SMILES strings stand for the structures.

The term Ki denotes the equilibrium dissociation constant of an inhibitor or competing ligand from its target.

The assay deals with Mu-type opioid receptor (Homo sapiens, UniProt P35372). Nature of the assay: Displacement of [3H]-Diprenorphine from human mu opioid receptor expressed in HEK293-TSA cell membranes after 4 hrs by scintillation counting method. Background: Displacement assays read how much labelled ligand stays bound in the presence of the test substance.

`CCOc1ccc(Nc2nc3cc(C(=O)N(CC)CC)ccc3n2CCC(C)C)cc1` registered a Ki of 53.6 µM.

Take `CCOc1ccc(Cc2nc3cc(C(=O)N(CC)CC)ccc3n2CCC(C)C)cc1`: the Ki came to 6.7 µM.
